The target in this assay is mechanistic target of rapamycin (mTOR) (human). The assay is described as follows: immunoprecipitation and Western blot, hTS cells, RA 4 hr (FIG. 28g).

B1: eukaryotic translation initiation factor-4E binding protein 1 (eIF4EBP1) (other)
chain: SGGSSCSQTPSRAIPATRRVVLGDGVQLPPGDYSTTPGGTLFSTTPGGTRIIYDRKFLMECRNSPVTKTPPRDLPTIPGVTSPSSDEPPMEASQSHLRNSPEDKRAGGEESQFEMDI
notes: Endogenous protein of RA-treated hTS cells
B1: the binding result is given as “binds”.
